# Values quoted from earlier work in patent publication US20110002851A1, “Cationic Colloidal Carriers for Delivery of Active Agents to the Blood-Brain Barrier in the Course of Neuroinflammatory Diseases” (MediGene AG, priority 2006, published 2011).
# System: T cells
# Settings: by its effect on MMP-9
molecule,measurement,value
"Interferon-beta: interferon beta, used for treatment of relapsing-remitting MS (protein, UniProt P01574 22-187, looked up) Interferon beta: MSYNLLGFLQRSSNFQCQKLLWQLNGRLEYCLKDRMNFDIPEEIKQLQQFQKEDAALTIYEMLQNIFAIFRQDSSSTGWNETIVENLLANVYHQINHLKTVLEEKLEKEDFTRGKLMSSLHLKRYYGRILHYLKAKEYSHCAWTIVRVEILRNFYFINRLTGYLRN",Migration of T cells,inhibited
